Data on one molecule can be found in ChEMBL document CHEMBL4257536, “Pharmacophore-based tailoring of biphenyl amide derivatives as selective 5-hydroxytryptamine 2B receptor antagonists” (Medchemcomm, 2018).

The species named for the test is Homo sapiens. Nature of the test: Selectivity ratio of Ki for human 5HT1B receptor to Ki for human 5HT2B receptor. In short, it runs like this: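 Ki values from radioligand displacement run in triplicate, using [3H]GR127543 for 5-HT1B and [3H]LSD for 5-HT2B. The ratio compares the 5-HT1B Ki to the 5-HT2B Ki.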

Turning to `O=C(NCCc1c[nH]c2ccccc12)C1CCN(C(=O)c2ccc(-c3ccccc3)cc2)CC1`, the Ratio Ki was greater than 750.
